Data from patent US20220023289A1, “Application Of Pyrroloquinoline Quinone In Preparation Of Medicament Used For Preventing And Treating Acute Altitude Sickness And Acute Altitude Hypoxia Injury” (priority 2018, published 2022).

System: rats exposed to acute altitude hypoxia
Assay: Renal function in rats exposed to acute altitude hypoxia
Assay type: in vivo, Wistar rat
Conditions: 0.11 g/kg

**Q.** CC(=O)Nc1nnc(S(N)(=O)=O)s1 [Acetazolamide, reference compound] was tested. Which Serum urea nitrogen (female rats) did it give?
**A.** Its Serum urea nitrogen is 8.02 ± 1.05 mmol/L.

**Q.** What about the Serum urea nitrogen (male rats) of the same compound?
**A.** The Serum urea nitrogen was 7.99 ± 1.03 mmol/L.
